Data: patent publication US20250282824A1, “Inhibitors of the Wnt Signaling Pathway and Uses Thereof” (Stichting VU, priority 2021, published 2025)

System: Wnt signaling pathway
Assay: TOPFLASH reporter gene assay in HEK293T cells
Conditions: read-out: IC50, concentration-dependent TOPFLASH reporter gene assay, c=0.512-50 μM, 24 h, n=3

Compound: CC(C)C[C@@H]1NC(=O)[C@H](CC(C)C)NC(=O)[C@H](CO)NC(=O)[C@H](CC(=O)O)NC(=O)[C@@H]2CCCN2C(=O)[C@H]2CCCN2C(=O)[C@H](C(C)C)NC(=O)[C@H](CC(=O)O)NC(=O)[C@H](CC(N)=O)NC(=O)[C@H](CCCNC(=N)N)NC(=O)[C@@H]2CSC/C=C/CSC[C@H](NC1=O)C(=O)N[C@@H](Cc1ccccc1)C(=O)NCCC(=O)NCCC(=O)N[C@@H](C(C)C)C(=O)N2 [A-b6, [βA-V-[C-R-N-D-V-p-P-D-S-L-L-C]-F-βA]/b6]
- IC50: 8 µM
